This test has as its target recombinant SARS-Cov-2 M^pro (Severe acute respiratory syndrome coronavirus 2 (2019-nCoV) (SARS-CoV-2), UniProt P0DTD1). The class given is biochemical. The following applies: read-out: IC50 (μM), inhibition of SARS-Cov-2 M^pro; Table 4.

For orientation: IC50 means the point on the concentration scale where inhibition reaches its midpoint.

On to `Cc1ocnc1COc1cc(Cl)cc(-c2cc(-c3c[nH]c(=O)[nH]c3=O)cn(-c3cccnc3)c2=O)c1` [Compound 42], for which the IC50 worked out at 0.137 ± 0.022 µM.
